# Patent publication US6924302B2, “Substituted triazole diamine derivatives as kinase inhibitors” (Ortho McNeil Pharmaceutical, Inc., priority 2000, dated 2005)
# Amino acid sequences for entries named in this document (tags omitted). Residues count along the entry.
# UniProt O08775, 786-1343: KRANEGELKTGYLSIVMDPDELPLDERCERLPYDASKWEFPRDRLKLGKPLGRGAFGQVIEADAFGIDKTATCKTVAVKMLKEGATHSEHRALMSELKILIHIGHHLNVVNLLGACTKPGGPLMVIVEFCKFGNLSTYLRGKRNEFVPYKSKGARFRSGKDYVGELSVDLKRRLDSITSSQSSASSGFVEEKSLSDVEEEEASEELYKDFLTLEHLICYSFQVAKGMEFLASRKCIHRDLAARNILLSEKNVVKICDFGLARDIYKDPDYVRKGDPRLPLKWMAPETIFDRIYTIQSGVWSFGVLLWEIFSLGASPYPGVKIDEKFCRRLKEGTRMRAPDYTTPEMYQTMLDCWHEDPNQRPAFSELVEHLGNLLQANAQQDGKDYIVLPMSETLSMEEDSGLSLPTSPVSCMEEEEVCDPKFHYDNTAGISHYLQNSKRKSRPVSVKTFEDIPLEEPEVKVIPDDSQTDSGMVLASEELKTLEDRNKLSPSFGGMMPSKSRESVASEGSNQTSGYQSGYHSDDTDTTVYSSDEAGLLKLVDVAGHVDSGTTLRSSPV
# UniProt P06213, 980-1352: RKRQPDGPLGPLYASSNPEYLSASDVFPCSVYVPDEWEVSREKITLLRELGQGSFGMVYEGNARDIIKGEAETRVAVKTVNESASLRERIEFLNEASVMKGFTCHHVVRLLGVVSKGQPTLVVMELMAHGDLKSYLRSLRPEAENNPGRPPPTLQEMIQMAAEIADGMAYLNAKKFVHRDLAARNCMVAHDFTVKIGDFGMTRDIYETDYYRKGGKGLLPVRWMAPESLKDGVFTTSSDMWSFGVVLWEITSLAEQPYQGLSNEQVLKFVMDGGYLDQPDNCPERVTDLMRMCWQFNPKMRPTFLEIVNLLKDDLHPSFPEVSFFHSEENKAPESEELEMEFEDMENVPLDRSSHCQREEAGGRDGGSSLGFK
# Assays:
# Type in all cases: biochemical
# [1] = biological target: T1, VEGF-R (vascular endothelial growth factor receptor-2) (Rattus norvegicus, UniProt O08775); test: VEGF-R Screening Assay
# T1 construct: polyhistidine (6xHIS) (N)
# Description: 70 μL of the kinase reaction mixture was dispensed into the well of a streptavidin coated FlashPlate™ (Cat. # SMP103, NEN, Boston, Mass.). Then 1 μL of test compound stock in 100% DMSO was added to the wells resulting in a final concentration of 1% DMSO in the reaction with a 100 μL final reaction volume. Next, soluble rat tyrosine kinase containing an N-terminal 6×HIS tag was diluted in 50 mM Tris-HCl pH=8.0, 0.1% BSA at a concentration of 5 ng per μL and 30 μL (150 ng enzyme per test well) was added to each well to initiate the reaction. The reaction was incubated for one hour at 30° C. At the end of the 1-hour incubation, the reaction was terminated by aspirating the reaction mixture from the plate and washing the wells twice with PBS containing 100 mM EDTA. The PLC1 biotinylated peptide substrate became immobilized on the Flashplate™ and the incorporation of ^33P-γ-ATP was measured by reading the plate on a scintillation counter. Inhibition of the enzymatic activity of the VEGF-R was measured by observing a reduced amount of ^33P-γ-ATP incorporated into the immobilized peptide.
# (§1) Assays to test compound inhibition of other kinases were preformed using methods that measure the amount of phosphorylation of a biotinylated peptide substrate. Biotinylated peptide substrates were selected from the literature as appropriate for the enzyme being evaluated. […] Assay conditions vary slightly for each protein kinase, for example, insulin receptor kinase requires 10 mM MnCl2 for activity and Calmodulin-dependent protein kinase requires calmodulin and 10 mM CaCl2. These assay conditions are known in the art. […] The plate was read on a scintillation counter to determine ^33P-γ-ATP incorporated into the immobilized peptide. […] A maximum and minimum signal for the assay was determined on each plate. The IC50 was calculated from the dose response curve of the percent inhibition of the maximum signal in the assay according to the formula [max signal—background/test compound signal—background (100)=% inhibition] by graphing the percent inhibition against the log concentration of test compound. […]
# [2] = biological target: T2, Casein Kinase 1 (CK1 delta isoform) (Rattus norvegicus, UniProt Q06486); test: Kinase Selectivity Assay Casein Kinase 1
# T2 construct: a truncation at amino acid 318 of the C-terminal portion of the rat CK1 delta isoform; purchased New England Biolabs 6030; host or cells: E. coli
# T2 sequence (Q06486 1-317): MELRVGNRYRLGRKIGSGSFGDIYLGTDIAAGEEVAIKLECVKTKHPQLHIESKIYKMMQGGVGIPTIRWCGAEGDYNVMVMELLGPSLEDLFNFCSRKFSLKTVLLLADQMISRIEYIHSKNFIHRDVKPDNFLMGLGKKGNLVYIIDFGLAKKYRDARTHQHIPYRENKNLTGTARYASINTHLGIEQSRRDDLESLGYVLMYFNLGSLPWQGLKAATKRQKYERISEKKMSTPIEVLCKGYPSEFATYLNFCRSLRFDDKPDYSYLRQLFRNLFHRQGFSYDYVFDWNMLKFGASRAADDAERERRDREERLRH
# Description: as §1, with “art. The reaction mixture was dispensed into the wells of a streptavidin coated Flashplate and 1 μl drug stock in 100% DMSO was added to a 100 μl reaction volume resulting in a final concentration of 1% DMSO on the reaction. Enzyme was diluted in 50 mM Tris-HCl pH=8.0, 0.1% BSA and add to each well. The reaction was incubated for one hour at 30° C. in the presence of compound.” for “art.”
# [3] = biological target: Insulin Receptor Kinase (Homo sapiens, UniProt P06213); test: Kinase Selectivity Assay Insulin Receptor Kinase
# Description: as §1, with “art. The reaction mixture was dispensed into the wells of a streptavidin coated Flashplate and 1 μl drug stock in 100% DMSO was added to a 100 μl reaction volume resulting in a final concentration of 1% DMSO on the reaction. Enzyme was diluted in 50 mM Tris-HCl pH=8.0, 0.1% BSA and add to each well. The reaction was incubated for one hour at 30° C. in the presence of compound.” for “art.”
smiles,measurement,setting,value
"Cc1ccsc1C(=O)n1nc(Nc2ccc(S(N)(=O)=O)cc2)nc1N [Cpd 15, 4-[[5-amino-1-[(3-methyl-2-thienyl)carbonyl]-1H-1,2,4-triazol-3-yl]amino]-benzenesulfonamide]",pIC50,"[1]; VEGF-R IC50, Kinase Selectivity, Tables 2a-2k",7.29
same,pIC50,"[1]; VEGF-R IC50, Table 1",7.29
"Cc1cc(C)c(C(=O)n2nc(Nc3ccc(S(N)(=O)=O)cc3)nc2N)s1 [Cpd 33, 4-[[5-amino-1-[(3,5-dimethyl-2-thienyl)carbonyl]-1H-1,2,4-triazol-3-yl]amino]-benzenesulfonamide]",pIC50,[2],6.98
"Cc1ccc(F)c(C(=O)n2nc(Nc3ccc(S(N)(=O)=O)cc3)nc2N)c1F [Cpd 2, 4-[[5-amino-1-(2,6-difluoro-3-methylbenzoyl)-1H-1,2,4-triazol-3-yl]amino]-benzenesulfonamide]",pIC50,[3],5.01
"Nc1nc(Nc2ccc(S(N)(=O)=O)cc2)nn1C(=S)Nc1c(F)cccc1F [Cpd 66, 5-amino-3-[[4-(aminosulfonyl)phenyl]amino]-N-(2,6-difluorophenyl)-1H-1,2,4-triazole-1-carbothioamide]",pIC50,"[1]; VEGF-R IC50, Table 1",7.49

# pIC50: −log10 of the molar value.
